According to PMC9277925, “Discovery of a novel ALK/ROS1/FAK inhibitor, APG-2449, in preclinical non-small cell lung cancer and ovarian cancer models” (BMC Cancer, 2022):

What was measured:
[1] = test system: Ba/F3 cells carrying EML4-ALK G1202R mutation; assay: Ba/F3 EML4-ALK G1202R xenograft efficacy; type: in vivo, SCID mice; conditions: Day 15, treated for 2 weeks
[2] = test system: NSCLC PDX LD1–0006-390,637 harboring ALK L1196M_G1202R double mutations; assay: NSCLC PDX LD1–0006-390,637 efficacy; type: in vivo, NU/NU mice

SMILES | T/C % [1] [%] | relapse observed on Day ([2]; first experiment) [days] | time mCR was sustained ([2]; independent repeat experiment) | mCR ([2]; independent repeat experiment (Suppl. Fig. 2B)) [%] | tumor status when lorlatinib group progressed (in words) ([2]; independent repeat experiment, Day 39) | mCR ([2]; on Day 16 of treatment) [%]
CCc1cc2c(cc1N1CCC(N3CCOCC3)CC1)C(C)(C)c1[nH]c3cc(C#N)ccc3c1C2=O [Alectinib] | 130 | 28 | at least 3 weeks | 100 | remained unpalpable | 100
C[C@@H](Oc1cc(-c2cnn(C3CCNCC3)c2)cnc1N)c1c(Cl)ccc(F)c1Cl [crizotinib] | 84.3 | – | – | – | – | –
